In assay [1] the test system is Escherichia coli. The conditions noted are these: ATCC 25922.
Assay [2] concerns Escherichia coli. The conditions noted are these: 1515.
In assay [3] the test system is Klebsiella pneumoniae. To be noted: 935.
Assay [4] concerns Klebsiella pneumoniae. The conditions noted are these: 967.
Assay [5] has as its system Escherichia coli. To be noted: 9612, 1 mg/ml.
For assay [6], the system named is Escherichia coli. The conditions noted are these: 9612, 40 mg/kg.
Assay [7] deals with Escherichia coli. To be noted: 9612, 24 mg/kg.
Assay [8] deals with Escherichia coli. The conditions noted are these: 9612, 14.4 mg/kg.
The test system of assay [9] is Escherichia coli. To be noted: 9612, 8.64 mg/kg.
Assay [10] concerns Escherichia coli. To be noted: 9612, 5.18 mg/kg.

In general, MIC refers to the least concentration at which growth counts as inhibited. Low readings indicate inhibition by little substance, high ones a need for much substance.

In the case of GENTAMICIN, the minimum inhibitory concentration (MIC) in [1], in assay [2], in [3] and in assay [4] was 0.5 µg/mL in each case. Besides, the log10CFU/g in assay [5] came to 8.31; in assay [6] it was 2.78; in assay [7], 3.24; in assay [8], 3.34; in assay [9] it was 3.44; in assay [10], 3.71.
